Tested on: Lck
Assay: Pulse-chase tandem imaging of palmitate turnover on Lck in Jurkat T cells
Format: cell-based, human
Conditions: added during the chase; 20 μM MAFP, 100 μM 2BP

For methyl arachidonyl fluorophosphonate, the “effect of chemical inhibitor on palmitate turnover on Lck” value was “significantly retarded palmitate turnover on Lck”.
